Target: T1, human heteromultimeric ASIC-2S.2 channel (human ASIC2A + human ASIC3) (human, UniProt Q16515 1-512; Q9UHC3 1-531)
T1 chain 1: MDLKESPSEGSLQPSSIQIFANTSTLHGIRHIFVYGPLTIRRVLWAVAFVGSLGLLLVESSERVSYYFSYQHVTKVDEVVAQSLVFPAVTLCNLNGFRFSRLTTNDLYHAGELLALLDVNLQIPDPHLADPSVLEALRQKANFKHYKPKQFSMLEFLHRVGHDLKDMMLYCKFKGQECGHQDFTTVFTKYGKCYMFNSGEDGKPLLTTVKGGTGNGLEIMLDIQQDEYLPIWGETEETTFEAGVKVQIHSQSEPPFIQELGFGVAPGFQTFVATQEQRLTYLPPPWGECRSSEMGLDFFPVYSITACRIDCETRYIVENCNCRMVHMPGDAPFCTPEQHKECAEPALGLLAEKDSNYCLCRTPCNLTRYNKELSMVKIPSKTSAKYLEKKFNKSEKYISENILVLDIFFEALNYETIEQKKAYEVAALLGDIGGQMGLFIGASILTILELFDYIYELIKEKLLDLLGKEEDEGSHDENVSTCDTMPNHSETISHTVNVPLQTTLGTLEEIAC
T1 chain 2: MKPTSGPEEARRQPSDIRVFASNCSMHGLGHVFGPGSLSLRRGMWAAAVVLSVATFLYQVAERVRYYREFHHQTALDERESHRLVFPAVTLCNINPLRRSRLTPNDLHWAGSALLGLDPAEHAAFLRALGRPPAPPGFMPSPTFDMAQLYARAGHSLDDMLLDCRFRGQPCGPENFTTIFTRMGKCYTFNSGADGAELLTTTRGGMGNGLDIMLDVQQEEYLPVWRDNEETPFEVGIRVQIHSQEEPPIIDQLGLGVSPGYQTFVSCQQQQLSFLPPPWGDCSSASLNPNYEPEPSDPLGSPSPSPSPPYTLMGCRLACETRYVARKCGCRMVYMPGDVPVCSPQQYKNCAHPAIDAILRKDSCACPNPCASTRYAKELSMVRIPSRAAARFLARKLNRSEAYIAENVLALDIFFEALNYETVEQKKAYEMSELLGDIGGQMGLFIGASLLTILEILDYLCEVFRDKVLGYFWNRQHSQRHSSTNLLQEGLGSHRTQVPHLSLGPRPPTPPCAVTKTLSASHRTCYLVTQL
Experiment: cell-based or functional assay

EC50 of potentiation of currents induced by pH 4: 13 µM
Binder: FMRF (C-terminal amide) [FMRFamide]

Reference: patent US20030219858A1 (MCGILL UNIVERSITY, published 2003)
